For this test, the target named is Amine oxidase [flavin-containing] A (Homo sapiens, UniProt P21397). Description: Inhibition of MAO-A in human placental mitochondria. Also on record: species or system Placenta.

Amino acid sequences for entries named in this document (tags omitted).
UniProt P21397, whole entry: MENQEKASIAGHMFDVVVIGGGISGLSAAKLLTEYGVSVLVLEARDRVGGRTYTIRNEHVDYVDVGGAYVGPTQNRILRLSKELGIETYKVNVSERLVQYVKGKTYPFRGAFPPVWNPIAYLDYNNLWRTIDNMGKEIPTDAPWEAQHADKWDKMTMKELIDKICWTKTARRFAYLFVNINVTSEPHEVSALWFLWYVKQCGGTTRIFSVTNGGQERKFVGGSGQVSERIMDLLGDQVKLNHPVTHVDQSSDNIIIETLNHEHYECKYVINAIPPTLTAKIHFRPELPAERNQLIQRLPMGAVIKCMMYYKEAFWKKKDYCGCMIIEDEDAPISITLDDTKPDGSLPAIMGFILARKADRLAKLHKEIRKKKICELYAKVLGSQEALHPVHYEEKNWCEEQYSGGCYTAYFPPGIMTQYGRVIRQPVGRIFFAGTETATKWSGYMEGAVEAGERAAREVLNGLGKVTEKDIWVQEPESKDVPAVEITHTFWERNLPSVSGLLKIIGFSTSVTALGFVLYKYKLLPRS

Broadly, the IC50 is the point on the concentration scale where inhibition reaches its midpoint. A low value points to greater potency in that assay. In the case of `COc1ccc2c(c1)-c1nnc(-c3cccc(C(F)(F)F)c3)cc1C2=O`, the IC50 is over 1000 nM.

These data come from ChEMBL document CHEMBL1148653, “Synthesis, structural reassignment, and biological activity of type B MAO inhibitors based on the 5H-indeno[1,2-c]pyridazin-5-one core” (J Med Chem, 2006).
